Laboratory results from US20030181436A1, “Treatment for AIDS, HIV, and other related diseases and compounds for use therewith” (priority 2001, published 2003).

Assay: Water solubility of the prepared compound
Type: physicochemical

Substance	solubility in water
Bismuth iodiscorbate	water soluble
Potassium Iodiscorbate [Compound K]	water soluble
Zinc Iodiscorbate [Compound Z]	water soluble
